Measured values taken from patent US6861542B1, “Dimer amidopropyl dimethyl quaternary compounds” (SurfaTech Corporation, priority 2004, dated 2005).

Test: Anionic compatibility test (titration of 10% sodium lauryl sulfate with 10% solids quat solution)
Type: physicochemical
Details: 10% solids solution added to 100 ml of 10% sodium lauryl sulfate
Experimental: The compounds evaluated were diluted to 10% solids with DI water before evaluation.
A solution of 10% b weight sodium lauryl sulfate was prepared. The sodium lauryl sulfate was obtained from Colonial Chemical in South Pittsburgh Tennessee.
Anionic Compatibility Test
100 ml of solution B was added to a 400 ml beaker. Solution A was slowly added until either a precipitate or haziness was noted. The number of ml of solution was recorded at the first point the haze of precipitate was noted. That point was noted as the end point. The higher the volume used to the end point the better the compatibility. The test is stopped at 100 ml at which point the product is considered fully compatible.

Hydrogenated dimer benzyl quat [Example 6]
anionic compatibility rating: Very | number of ml of solution A at the first point haze or precipitate was noted (end point) (test stopped at 100 ml (fully compatible)): 87.0 mL
